Source: patent EP3300733A1, “SUBSTANCE SELECTED AMONG IRINOTECAN, AN IRINOTECAN ACTIVE METABOLITE, 5-FLUORO-URACILE, A PHARMACEUTICAL SALT THEREOF AND A MIXTURE THEREOF, FOR USE IN THE TREATMENT OF FIBROSIS” (Centre Hospitalier Universitaire de Bordeaux, priority 2016, dated 2018)

System: procollagen I
Test: effect of a combination of low SN38 and 5FU doses on procollagen I release (ELISA)
Assay type: cell-based, human
Conditions: SN38 0.006 µg/ml alone (condition A), 48h; patient SSC2, SSC3 or H2
Description: Dermal fibroblasts were obtained from clinically affected skin of systemic sclerosis (SSC) patients and from healthy donors (H). The fibroblasts were grown in DMEM medium containing 2mM of L-glutamine supplemented with 10% foetal bovine serum (FCS) and penicillin/streptomycin antibiotics. For the experiments, cells were starved 24h before the addition of irinotecan, SN38 or 5FU in DMEM 0-1% FCS. mRNA analysis
Dermal fibroblasts were plated in DMEM 10% FCS supplemented with 20µg/mL of vitamin C in 96-well plates. 24h before the experiment, medium was switched to DMEM 0% FCS supplemented with 20µg/mL of vitamin C. Cells were treated for 48h with SN38 (0.006 µg/mL), 5FU (1 µg/mL) or a combination (SN38 0.006 µg/mL and 5FU 1 µg/mL) in DMEM 0% FCS supplemented with 20µg/mL of vitamin C. Supernatants were collected to evaluate the procollagen I release level by ELISA kit (ref MK101, supplier Takara) according to manufacter's instructions. Triplicates were done. The level of procollagen I release was presented as fold change compared with the procollagen I release by the same non-treated fibroblasts arbitrary fixed at 100%.

## CCc1c2c(nc3ccc(O)cc13)-c1cc3c(c(=O)n1C2)COC(=O)[C@]3(O)CC [SN38, 7-Ethyl-10-hydroxy-camptothecin]
  procollagen I release: not observed
